Experimental findings from a melting point compilation (Tetko et al.; mined from patent text by program, amines drawn as free bases though some values may be those of a salt) are described below.

Each structure is given as a SMILES string.

Consider `Clc1ccccc1N1CCNCC1`, for which the melting point lay within 213 to 214 °C.

`CCc1ccc2c(c1)C=C(C(=O)O)C(C(F)(F)F)O2` (configuration not stated) displayed a melting point of 145 to 149 °C.
